Test results from ChEMBL document CHEMBL5375953, “Discovery of Biaryl Amide Derivatives as Potent, Selective, and Orally Bioavailable RORγt Agonists for Cancer Immunotherapy” (J Med Chem, 2023).
The source made the active and inactive calls. No cut-off for these calls is given here.

Assays:
[1] = test system: Lung adenocarcinoma cell line; test: Induction of Th17 cells differentiation in mouse Lung adenocarcinoma cell line xenografted in C57BL/6 mouse model assessed as increase in RORC mRNA expression at 25 mg/kg,ip administrated on day 7 for 12 days by qPCR analysis; type: functional, organism-based; details: time 12.0 day
[2] = test system: Lung adenocarcinoma cell line; test: Induction of Th17 cells differentiation in mouse Lung adenocarcinoma cell line xenografted in C57BL/6 mouse model assessed as increase in CD4+ Th17 production at 25 mg/kg,ip administrated on day 7 for 12 days by flow cytometry analysis; type: functional, organism-based; details: time 12.0 day

In the case of CCS(=O)(=O)c1ccc(CC(=O)Nc2cc(Cl)c(-c3ccc(OC(C)C)c(C#N)c3)c(Cl)c2)cc1, the Activity [1] is reported as “Active” and the Activity [2] is reported as “Active”.
